Antibody variant affinities, Ab-14 light chain, assay B

Source: Li et al. 2023 (doi:10.1038/s41467-023-39022-2), MIT Lincoln Laboratory and A-Alpha Bio; data file from the FLAb repository.

Target: peptide PDVDLGDISGINAS, taken from heptad repeat 2 (HR2) of SARS-CoV-2 spike.

Parent: Ab-14, a human scFv built as VH, three GGGGS repeats, VL. Only the CDRs of the light chain vary.
VH: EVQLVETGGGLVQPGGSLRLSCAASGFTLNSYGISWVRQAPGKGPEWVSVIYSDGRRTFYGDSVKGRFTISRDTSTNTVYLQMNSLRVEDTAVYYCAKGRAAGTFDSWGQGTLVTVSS
VL: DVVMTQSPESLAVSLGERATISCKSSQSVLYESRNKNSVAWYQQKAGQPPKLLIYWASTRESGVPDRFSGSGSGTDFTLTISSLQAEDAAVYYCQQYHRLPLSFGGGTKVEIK

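Phage display of a naive human antibody library on the peptide gave the parent. This is the validation round: designs drawn from the data on random variants, tested in the same kind of assay. Group labels follow the data file (Ctrl: baseline library sampled from a position-specific scoring matrix, with some repeated check sequences; GP: Gaussian process model; HC: hill climbing; Gen: genetic algorithm; Gibbs: Gibbs sampling; a sequence that several methods proposed may carry one label only). The assay is AlphaSeq: two haploid yeast populations carry antibody and antigen on their surface. Binding brings cells together so that they mate, and sequencing counts the barcode pairs among the diploids. A regression on co-assayed BCL2-family reference pairs converts the normalised counts of each replicate to an apparent Kd. Each pool was mated in six replicate cultures.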

Substitutions are numbered in sequence along the VL above, starting at 1 (not Kabat). Variants here have at most six changes. Affinities are written as log10 Kd with Kd in nM; a lower number is a better binder. The mean shown is taken over the replicates in which the pair was detected. "no signal" means that the variant was in the library but no mating with the target was seen in any replicate; the authors take this as a sign of poor binding, and no number exists.

| changes | group | mean log10 Kd (nM) | seen in |
|---|---|---|---|
| S25F/S33D/N35T/W56N | GP_HC | 0.57 | 6 of 6 |
| S25L/S26R/V29T/K36P/W56R | GP_HC | 0.22 | 6 of 6 |
| S25L/K36A/W56N | GP_Gen | 0.20 | 6 of 6 |
| S25L/W56N/T59Q/E61Y | GP_Gen | 0.17 | 6 of 6 |
| L100S | Ctrl | 1.68 | 3 of 6 |
| S25L/S26E/Q27M/V29H/W56N | GP_Gen | -0.18 | 6 of 6 |
| V29Y | Ctrl | no signal | 0 of 6 |
| S25V/W56E/S103Q | GP_Gen | -0.29 | 6 of 6 |
| W56G/Q96N | GP_HC | 0.45 | 6 of 6 |
| S25L/S26E/V29W/W56N/T59L | GP_Gen | 0.15 | 6 of 6 |
| S25L/S26P/V29D/W56E | GP_Gen | -0.15 | 6 of 6 |
| S25L/W56G/S62Q | GP_Gen | -0.08 | 6 of 6 |
| S25L/K36A | Ctrl | 0.36 | 6 of 6 |
| S25V/S38N/W56D | GP_Gen | -0.35 | 6 of 6 |
| S28E/N37Y/S103W | Ctrl | 1.19 | 1 of 6 |
| S25L/S26Q/Q27F/S28L/W56G/Q96A | GP_Gibbs | 1.77 | 6 of 6 |
| S25L/S26Q/V29H/W56G | GP_Gen | -0.16 | 6 of 6 |
| S33D/R34E/W56H | Ctrl | -0.05 | 6 of 6 |
| S25F/S33T/N35T/W56N/Q96W | GP_HC | 1.06 | 6 of 6 |
| Q27G/V29Y/R34M/W56N/A57G | GP_HC | 0.19 | 6 of 6 |
| S25V/V29M/R34G/N35T/W56N/T59Y | GP_HC | 0.19 | 6 of 6 |
| S25L/V29K/W56D | GP_Gen | -0.21 | 6 of 6 |
| S25Q/Y31G/N37R/W56E | Ctrl | 0.15 | 6 of 6 |
| S26L/W56H/S62D/S103M | GP_HC | 0.50 | 6 of 6 |
| E61R | Ctrl | 2.46 | 4 of 6 |
| S25L/S26Q/S38N/W56G | GP_Gen | -0.62 | 6 of 6 |
| S28R/L30R/K36V/A57G/E61M/H98S | Ctrl | 2.86 | 3 of 6 |
| K24L/Q27I/V29Y/L30E/R34P/W56E | GP_HC | 0.20 | 6 of 6 |
| Q27I/R34E/W56N/T59Q/E61M | GP_HC | -0.10 | 6 of 6 |
| K24H/Q27P/K36G/W56N/S62R | GP_HC | 0.82 | 6 of 6 |
| S25V/L30E/S33D/W56Q/T59Q/E61C | GP_Gibbs | -0.09 | 6 of 6 |
| S25L/S26Q/V29H/W56N/T59Q | GP_Gen | 0.10 | 6 of 6 |
| S25L/V29L | Ctrl | 0.86 | 6 of 6 |
| S25L/V29E/W56N/T59Q/E61C | GP_Gen | 1.05 | 6 of 6 |
| S25M/Q27I/V29W/V39I | Ctrl | 1.02 | 4 of 6 |
| S25W/Y31F/W56D/T59F | GP_HC | -0.05 | 6 of 6 |
| S25Y/N35Y/T59K/Q96I/L102K | Ctrl | no signal | 0 of 6 |
| R34K/R60H | Ctrl | no signal | 0 of 6 |
| S25L/S26R/V29T/K36P/W56M | GP_HC | 0.49 | 6 of 6 |
| S25V/V29K/W56D | GP_Gen | 0.31 | 6 of 6 |
| R34T/W56S | Ctrl | 0.29 | 6 of 6 |
| V29D/R34V/W56H | GP_HC | -0.04 | 6 of 6 |
| S25L/S26P/W56G/S62Q | GP_Gen | -0.26 | 6 of 6 |
| S25T/S26Q/Q27N/S28N/R34H/S62N | Ctrl | 1.70 | 6 of 6 |
| Q27F/R34E/W56E/T59Q | GP_HC | 0.49 | 6 of 6 |
| K24H/V29E/W56N/E61M | GP_HC | 0.44 | 6 of 6 |

Excerpt, the final 6 entries:

changes	group	mean log10 Kd (nM)	seen in
R34T/W56S	Ctrl	0.29	6 of 6
V29D/R34V/W56H	GP_HC	-0.04	6 of 6
S25L/S26P/W56G/S62Q	GP_Gen	-0.26	6 of 6
S25T/S26Q/Q27N/S28N/R34H/S62N	Ctrl	1.70	6 of 6
Q27F/R34E/W56E/T59Q	GP_HC	0.49	6 of 6
K24H/V29E/W56N/E61M	GP_HC	0.44	6 of 6

The range of this assay differs from that of the first round, and the authors advise against merging the two. Three control strains display no target. For all light chain designs, 4% of the pairings with them gave a signal, with a median of 2.64 and one signal in twenty below 1.59, so weak values seen in few replicates may be background. Of ten entries with the parent sequence, four were seen in most replicates (averages 0.34 to 2.37), three in one and three in none, so single entries are noisy. The authors' rule: three or more of the six replicates give a measured affinity, fewer mean a poor binder.